The subject of one experiment is MOLT-4 cells. The experiment in a line: Cell viability assay, MOLT-4 (CellTiter-Glo, 72 h). The following applies: read-out: MOLT4 Cell viability IC50. The procedure: Human T-ALL cell MOLT-4 or SCLC NCI-H146 was cultured using standard cell culture conditions in RPMI-1640 supplemented with 10% FBS in humidified incubator at 37 °C, 5% CO2. To assess the effect of BCL-XL PROTAC degraders on cell viability, exponentially growing cells were seeded at a density of 10,000 cells/well in 96-well plates. After cell seeding, serially-diluted compound or DMSO was added to the cells (in concentration ranging from 0 to 10 uM, 3* dilution series), and plates were incubated for 72 hours. Cell viability was measured using a CellTiter-Glo Luminescent Cell Viability Assay kit (Promega) according to the manufacturer's protocol. The luminescence signal of treated cells was normalized to DMSO control. The dose response curves and IC50 values were generated using Prism.
For orientation: Cellular ATP, detected with luciferase, serves as a proxy for viable cell number.

Sequences of proteins named here, by UniProt entry; tags and fusion partners are left off.
UniProt Q07817, whole entry: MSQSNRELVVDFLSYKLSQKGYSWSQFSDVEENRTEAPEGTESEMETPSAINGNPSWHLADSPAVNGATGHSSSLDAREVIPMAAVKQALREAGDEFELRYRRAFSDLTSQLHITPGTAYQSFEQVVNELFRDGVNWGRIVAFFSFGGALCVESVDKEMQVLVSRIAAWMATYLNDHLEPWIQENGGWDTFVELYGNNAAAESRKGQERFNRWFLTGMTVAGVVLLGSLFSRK

Another experiment deals with BCL-XL (Homo sapiens, UniProt Q07817). The experiment in a line: Immunoblotting: BCL-XL protein degradation. The conditions noted are these: read-out: MDA-MB-231 degradation DC50, MDA-MB-231 cells. The text has this: Cells were collected and lysed in a lysis buffer (Cat. No. BP-115DG, Boston Bio Products, Ashland, MA, USA) containing protease and phosphatase inhibitor cocktails (Cat. No. PPC1010, Sigma-Aldrich, St. Louis, MO, USA). An equal amount of protein lysates was separated on precasted 4-20% Tris-glycine gels (Mini-PROTEAN TGX, Cat. No. 456-1094, Bio-Rad, Hercules, CA, USA). Thereafter, the proteins were transferred to PVDF membranes (Cat. No. LC2002, MilliporeSigma, Billerica, MA, USA). The membranes were blocked with 5% w/v nonfat dry milk in TBS+Tween-20 (0.1% v/v) and then probed with primary antibodies overnight at 4 °C. Next day, the membranes were washed and incubated with appropriate horseradish peroxidase (HRP)-conjugated secondary antibodies. Primary antibodies against BCL-XL (Cat. No. 2762) and Pactin (Cat. No. 4970) and the secondary HRP-linked antibody (Cat. No. 7074) were purchased from Cell Signaling Technology (Danvers, MA, USA). The signal was detected using the ECL substrate (Cat. No. WBKLS0500, MilliporeSigma, Billerica, MA, USA) and captured on the ChemiDoc MP Imaging System (Bio-Rad, Hercules, CA, USA). The band intensities were calculated on the ImageJ software and normalized to equal loading control β-actin.
Background: A western blot detects proteins with antibodies after separation by electrophoresis.

Broadly, the IC50 is the midpoint of a concentration-inhibition curve. Broadly, the DC50 is the midpoint of the concentration-degradation curve. As to `CCn1c(C)c(C(=O)N2CC[C@H](OC)C2)c(-c2cc(F)cc(N3CCN(c4ccc(NS(=O)(=O)c5ccc(N[C@H](CCN6CCN(C(=O)CCCCCC(=O)N[C@H](C(=O)N7C[C@H](O)C[C@H]7C(=O)N[C@@H](C)c7ccc(-c8scnc8C)cc7)C(C)(C)C)CC6)CSc6ccccc6)c(S(=O)(=O)C(F)(F)F)c5)cc4)CC3)c2)c1-c1ccc(F)cc1`, the IC50 in the experiment with MOLT-4 cells was determined as 34 nM. Further, the half-maximal degradation concentration (DC50) at BCL-XL is 51 nM.

For `CCn1c(C)c(S(C)(=O)=O)c(-c2cc(F)cc(N3CCN(c4ccc(NS(=O)(=O)c5ccc(N[C@H](CCN6CCN(C(=O)COCCOCC(=O)N[C@H](C(=O)N7C[C@H](O)C[C@H]7C(=O)N[C@@H](C)c7ccc(-c8scnc8C)cc7)C(C)(C)C)CC6)CSc6ccccc6)c(S(=O)(=O)C(F)(F)F)c5)cc4)CC3)c2)c1-c1ccc(F)cc1`, in the experiment with MOLT-4 cells, the IC50 is 54 nM. For the same compound, the DC50 on BCL-XL was 65 nM.

As for `CCn1c(C)c(S(C)(=O)=O)c(-c2cc(F)cc(N3CCN(c4ccc(NS(=O)(=O)c5ccc(N[C@H](CCN6CCN(CCCCCOCC(=O)N[C@H](C(=O)N7C[C@H](O)C[C@@H]7C(=O)N[C@@H](C)c7ccc(-c8scnc8C)cc7)C(C)(C)C)CC6)CSc6ccccc6)c(S(=O)(=O)C(F)(F)F)c5)cc4)CC3)c2)c1-c1ccc(F)cc1`, the IC50 in the experiment with MOLT-4 cells was found to be 28 nM. In addition, the half-maximal degradation concentration (DC50) on BCL-XL turned out to be 3 nM.

In the case of `CCCn1c(C)c(C(=O)NCCN2CCN(C)CC2)c(-c2cc(F)cc(N3CCN(c4ccc(NS(=O)(=O)c5ccc(N[C@H](CCN6CCN(C(=O)CCCCCC(=O)N[C@H](C(=O)N7C[C@H](O)C[C@H]7C(=O)N[C@@H](C)c7ccc(-c8scnc8C)cc7)C(C)(C)C)CC6)CSc6ccccc6)c(S(=O)(=O)C(F)(F)F)c5)cc4)CC3)c2)c1-c1ccc(F)cc1`, the IC50 in the experiment with MOLT-4 cells stood at 50 nM. Moreover, the DC50 at BCL-XL came out at 54 nM.

With `Cc1ncsc1-c1ccc([C@H](C)NC(=O)[C@@H]2C[C@@H](O)CN2C(=O)[C@@H](NC(=O)CCCCCC(=O)N2CCN(CC[C@H](CSc3ccccc3)Nc3ccc(S(=O)(=O)Nc4ccc(N5CCN(c6cc(F)cc(-c7c(S(C)(=O)=O)c(C)n(C8CC8)c7-c7ccc(F)cc7)c6)CC5)cc4)cc3S(=O)(=O)C(F)(F)F)CC2)C(C)(C)C)cc1`, the IC50 with MOLT-4 cells amounted to 150 nM. The DC50 on BCL-XL amounted to 92 nM.

Turning to `CCn1c(C)c(S(C)(=N)=O)c(-c2cc(F)cc(N3CCN(c4ccc(NS(=O)(=O)c5ccc(N[C@H](CCN6CCN(C(=O)CCCCCC(=O)N[C@H](C(=O)N7C[C@H](O)C[C@H]7C(=O)N[C@@H](C)c7ccc(-c8scnc8C)cc7)C(C)(C)C)CC6)CSc6ccccc6)c(S(=O)(=O)C(F)(F)F)c5)cc4)CC3)c2)c1-c1ccc(F)cc1` (some centres unmarked), the half-inhibitory concentration (IC50) with MOLT-4 cells was 120 nM. The 50% degradation concentration (DC50) at BCL-XL worked out at 2 nM.

As for `CCn1c(C)c(S(C)(=O)=O)c(-c2cc(F)cc(N3CCN(c4ccc(NS(=O)(=O)c5ccc(N[C@H](CCN6CCN(C(=O)COCCCC(=O)N[C@H](C(=O)N7C[C@H](O)C[C@H]7C(=O)N[C@@H](C)c7ccc(-c8scnc8C)cc7)C(C)(C)C)CC6)CSc6ccccc6)c(S(=O)(=O)C(F)(F)F)c5)cc4)CC3)c2)c1-c1ccc(F)cc1`, the concentration for half-maximal inhibition (IC50) with MOLT-4 cells was found to be 110 nM. Besides, the 50% degradation concentration (DC50) on BCL-XL amounted to 5 nM.

Consider `Cc1ncsc1-c1ccc([C@H](C)NC(=O)[C@@H]2C[C@@H](O)CN2C(=O)[C@@H](NC(=O)CCCCCC(=O)N2CCN(CC[C@H](CSc3ccccc3)Nc3ccc(S(=O)(=O)Nc4ccc(N5CCN(c6cc(F)cc(-c7c(S(C)(=O)=O)c(C)n(C)c7-c7ccc(F)cc7)c6)CC5)cc4)cc3S(=O)(=O)C(F)(F)F)CC2)C(C)(C)C)cc1`, for which the IC50 in the experiment with MOLT-4 cells was 104 nM. Moreover, the DC50 on BCL-XL was found to be 5 nM.

For the compound `CCn1c(C)c(C(=O)N2CC[C@H](C#N)C2)c(-c2cc(F)cc(N3CCN(c4ccc(NS(=O)(=O)c5ccc(N[C@H](CCN6CCN(C(=O)CCCCCC(=O)N[C@H](C(=O)N7C[C@H](O)C[C@H]7C(=O)N[C@@H](C)c7ccc(-c8scnc8C)cc7)C(C)(C)C)CC6)CSc6ccccc6)c(S(=O)(=O)C(F)(F)F)c5)cc4)CC3)c2)c1-c1ccc(F)cc1`, the half-maximal inhibitory concentration (IC50) in the experiment on MOLT-4 cells was 32 nM. Moreover, the DC50 at BCL-XL amounted to 52 nM.

`CCn1c(C)c(S(C)(=O)=O)c(-c2cc(F)cc(N3CCN(c4ccc(NS(=O)(=O)c5ccc(N[C@H](CCN6CCN(C(=O)C7CCN(CCC(=O)N[C@H](C(=O)N8C[C@H](O)C[C@H]8C(=O)N[C@@H](C)c8ccc(-c9scnc9C)cc8)C(C)(C)C)CC7)CC6)CSc6ccccc6)c(S(=O)(=O)C(F)(F)F)c5)cc4)CC3)c2)c1-c1ccc(F)cc1`: the half-inhibitory concentration (IC50) in the experiment with MOLT-4 cells was determined as 9 nM. Further, the DC50 on BCL-XL worked out at 114 nM.

As to `CCn1c(C)c(S(C)(=O)=O)c(-c2cc(F)cc(N3CCN(c4ccc(NS(=O)(=O)c5ccc(N[C@H](CCN6CCN(CCCCC(=O)N[C@H](C(=O)N7C[C@H](O)C[C@H]7C(=O)N[C@@H](C)c7ccc(-c8scnc8C)cc7)C(C)(C)C)CC6)CSc6ccccc6)c(S(=O)(=O)C(F)(F)F)c5)cc4)CC3)c2)c1-c1ccc(F)cc1`, in the experiment on MOLT-4 cells, the IC50 is 51 nM. The 50% degradation concentration (DC50) at BCL-XL is 3 nM.

Take `CCn1c(C)c(S(C)(=O)=O)c(-c2cc(F)cc(N3CCN(c4ccc(NS(=O)(=O)c5ccc(N[C@H](CCN6CCN(CCCCCC(=O)N[C@H](C(=O)N7C[C@H](O)C[C@H]7C(=O)NC7(c8ccc(-c9scnc9C)cc8)CCC7)C(C)(C)C)CC6)CSc6ccccc6)c(S(=O)(=O)C(F)(F)F)c5)cc4)CC3)c2)c1-c1ccc(F)cc1`: the half-maximal inhibitory concentration (IC50) in the experiment on MOLT-4 cells came to 15 nM.

Consider `CCn1c(C)c(C(=O)N2CCC(S(C)(=O)=O)C2)c(-c2cc(F)cc(N3CCN(c4ccc(NS(=O)(=O)c5ccc(N[C@H](CCN6CCN(C(=O)CCCCCC(=O)N[C@H](C(=O)N7C[C@H](O)C[C@H]7C(=O)N[C@@H](C)c7ccc(-c8scnc8C)cc7)C(C)(C)C)CC6)CSc6ccccc6)c(S(=O)(=O)C(F)(F)F)c5)cc4)CC3)c2)c1-c1ccc(F)cc1` (some centres unmarked), for which the half-maximal inhibitory concentration (IC50) in the experiment with MOLT-4 cells was found to be 19 nM.

In the case of `CCn1c(C)c(C(=O)N2CC[C@H](F)C2)c(-c2cc(F)cc(N3CCN(c4ccc(NS(=O)(=O)c5ccc(N[C@H](CCN6CCN(C(=O)CCCCCC(=O)N[C@H](C(=O)N7C[C@H](O)C[C@H]7C(=O)N[C@@H](C)c7ccc(-c8scnc8C)cc7)C(C)(C)C)CC6)CSc6ccccc6)c(S(=O)(=O)C(F)(F)F)c5)cc4)CC3)c2)c1-c1ccc(F)cc1`, the IC50 in the experiment on MOLT-4 cells came to 110 nM.

For `CCn1c(C)c(S(C)(=O)=O)c(-c2cc(F)cc(N3CCN(c4ccc(NS(=O)(=O)c5ccc(N[C@H](CCN6CCN(C(=O)CC7CCC(C(=O)N[C@H](C(=O)N8C[C@H](O)C[C@H]8C(=O)N[C@@H](C)c8ccc(-c9scnc9C)cc8)C(C)(C)C)CC7)CC6)CSc6ccccc6)c(S(=O)(=O)C(F)(F)F)c5)cc4)CC3)c2)c1-c1ccc(F)cc1` (some centres unmarked), the IC50 in the experiment on MOLT-4 cells came out at 86 nM.

Regarding `CCn1c(C)c(S(C)(=O)=O)c(-c2cc(F)cc(N3CCN(c4ccc(NS(=O)(=O)c5ccc(N[C@H](CCN6CCN(CCOCCOCCC(=O)N[C@H](C(=O)N7C[C@H](O)C[C@H]7C(=O)N[C@@H](C)c7ccc(-c8scnc8C)cc7)C(C)(C)C)CC6)CSc6ccccc6)c(S(=O)(=O)C(F)(F)F)c5)cc4)CC3)c2)c1-c1ccc(F)cc1`, in the experiment on MOLT-4 cells, the half-inhibitory concentration (IC50) was found to be 45 nM.

In the case of `CCn1c(C)c(S(C)(=O)=O)c(-c2cc(F)cc(N3CCN(c4ccc(NS(=O)(=O)c5ccc(N[C@H](CCN6CCC(NC(=O)NCCCCCC(=O)N[C@H](C(=O)N7C[C@H](O)C[C@H]7C(=O)N[C@@H](C)c7ccc(-c8scnc8C)cc7)C(C)(C)C)CC6)CSc6ccccc6)c(S(=O)(=O)C(F)(F)F)c5)cc4)CC3)c2)c1-c1ccc(F)cc1`, the IC50 in the experiment with MOLT-4 cells came to 62 nM.

As for `CCn1c(C)c(S(C)(=O)=O)c(-c2cc(F)cc(N3CCN(c4ccc(NS(=O)(=O)c5ccc(N[C@H](CCN6CCN(C(=O)CC7CCC(CC(=O)N[C@H](C(=O)N8C[C@H](O)C[C@H]8C(=O)N[C@@H](C)c8ccc(-c9scnc9C)cc8)C(C)(C)C)CC7)CC6)CSc6ccccc6)c(S(=O)(=O)C(F)(F)F)c5)cc4)CC3)c2)c1-c1ccc(F)cc1` (some centres unmarked), in the experiment with MOLT-4 cells, the IC50 is 84 nM.

Turning to `CCn1c(C)c(S(C)(=O)=O)c(-c2cc(F)cc(N3CCN(c4ccc(NS(=O)(=O)c5ccc(N[C@H](CCN6CCN(CCCCCCC(=O)N[C@H](C(=O)N7C[C@H](O)C[C@H]7C(=O)N[C@@H](C)c7ccc(-c8scnc8C)cc7)C(C)(C)C)CC6)CSc6ccccc6)c(S(=O)(=O)C(F)(F)F)c5)cc4)CC3)c2)c1-c1ccccc1`, the half-maximal inhibitory concentration (IC50) in the experiment on MOLT-4 cells was 8 nM.

Turning to `CCn1c(C)c(C(=O)N2CC3(CCOCC3)C2)c(-c2cc(F)cc(N3CCN(c4ccc(NS(=O)(=O)c5ccc(N[C@H](CCN6CCN(C(=O)CCCCCC(=O)N[C@H](C(=O)N7C[C@H](O)C[C@H]7C(=O)N[C@@H](C)c7ccc(-c8scnc8C)cc7)C(C)(C)C)CC6)CSc6ccccc6)c(S(=O)(=O)C(F)(F)F)c5)cc4)CC3)c2)c1-c1ccc(F)cc1`, the IC50 with MOLT-4 cells was 55 nM.

In the case of `CCn1c(C)c(S(=O)(=O)N2CCN(C)CC2)c(-c2cc(F)cc(N3CCN(c4ccc(NS(=O)(=O)c5ccc(N[C@H](CCN6CCN(C(=O)CCCCCC(=O)N[C@H](C(=O)N7C[C@H](O)C[C@H]7C(=O)N[C@@H](C)c7ccc(-c8scnc8C)cc7)C(C)(C)C)CC6)CSc6ccccc6)c(S(=O)(=O)C(F)(F)F)c5)cc4)CC3)c2)c1-c1ccc(F)cc1`, the half-inhibitory concentration (IC50) in the experiment with MOLT-4 cells was 13 nM.

These data come from patent US20260382731A1, “BCL-2/BCL-XL PROTEIN DEGRADER AND USE THEREOF” (published 2026).
